# Reference: PubChem BioAssay AID602274 (Sanford-Burnham Center for Chemical Genomics, 2012)
# The entries are a selection whose mix differs from that of the whole data set. Active and inactive are the calls of the source. Rule as the data show it: active = survival enhancement above about 18%; inactive = the rest.
# Assay: compounds raising survival of dissociated human iPSCs – cell-based, ATPlite luminescence, primary screen (AID 602274);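 also: cells exposed to compounds for 16 hours before the ATP read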
# Details: hiPSC single-cell survival, at 20 µM, stronger effect = higher value, 100% = ROCK inhibitor wells, 0% = DMSO
row,Compound,survival enhancement
1,CC1CCN(C(=O)Oc2c(Cl)cc(Cl)c3cccnc23)CC1,inactive: 10.6%
